Source: BindingDB's records for 2536439

Sequences of proteins named here, by UniProt entry; tags and fusion partners are left off. A change or cut given only in a name is not applied to a line headed by its entry.
UniProt P33535, whole entry, looked up: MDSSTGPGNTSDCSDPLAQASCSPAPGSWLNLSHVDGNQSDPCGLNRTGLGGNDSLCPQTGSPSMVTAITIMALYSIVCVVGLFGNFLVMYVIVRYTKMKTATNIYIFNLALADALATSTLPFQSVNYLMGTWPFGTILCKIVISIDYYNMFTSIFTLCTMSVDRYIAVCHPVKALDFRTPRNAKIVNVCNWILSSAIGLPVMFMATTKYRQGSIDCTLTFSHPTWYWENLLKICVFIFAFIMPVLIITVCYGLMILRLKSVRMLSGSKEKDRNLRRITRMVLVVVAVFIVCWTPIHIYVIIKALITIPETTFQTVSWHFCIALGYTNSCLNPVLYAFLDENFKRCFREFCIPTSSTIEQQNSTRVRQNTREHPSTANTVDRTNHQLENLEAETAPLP
UniProt P33533, whole entry, looked up: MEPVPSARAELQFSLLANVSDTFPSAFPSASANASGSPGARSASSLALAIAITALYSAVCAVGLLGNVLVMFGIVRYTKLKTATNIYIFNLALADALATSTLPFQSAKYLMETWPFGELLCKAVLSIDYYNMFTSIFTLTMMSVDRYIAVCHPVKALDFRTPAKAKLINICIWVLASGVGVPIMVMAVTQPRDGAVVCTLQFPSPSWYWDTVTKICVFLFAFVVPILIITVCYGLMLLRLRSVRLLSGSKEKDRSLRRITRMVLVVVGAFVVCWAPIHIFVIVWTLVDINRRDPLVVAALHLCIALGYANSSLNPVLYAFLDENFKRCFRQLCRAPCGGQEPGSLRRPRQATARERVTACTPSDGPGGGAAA
UniProt P34975: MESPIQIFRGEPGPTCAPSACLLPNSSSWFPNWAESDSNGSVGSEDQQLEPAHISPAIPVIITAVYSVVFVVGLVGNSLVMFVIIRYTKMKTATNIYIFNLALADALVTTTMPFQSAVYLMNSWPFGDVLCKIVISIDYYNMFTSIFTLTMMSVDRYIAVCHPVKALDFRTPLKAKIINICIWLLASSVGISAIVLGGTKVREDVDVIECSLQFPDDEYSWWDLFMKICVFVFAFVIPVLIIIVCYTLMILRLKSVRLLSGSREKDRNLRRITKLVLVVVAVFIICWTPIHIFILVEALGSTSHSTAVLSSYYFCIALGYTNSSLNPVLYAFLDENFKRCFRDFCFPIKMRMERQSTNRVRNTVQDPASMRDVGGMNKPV
UniProt Q9R0C9, whole entry, looked up: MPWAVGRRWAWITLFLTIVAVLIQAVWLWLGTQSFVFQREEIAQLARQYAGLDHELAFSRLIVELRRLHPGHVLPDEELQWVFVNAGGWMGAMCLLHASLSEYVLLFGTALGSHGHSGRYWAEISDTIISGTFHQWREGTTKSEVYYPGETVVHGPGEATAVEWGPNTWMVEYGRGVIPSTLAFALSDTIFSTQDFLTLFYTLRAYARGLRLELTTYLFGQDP

Target: Delta-type opioid receptor/Kappa-type opioid receptor/Mu-type opioid receptor/Sigma non-opioid intracellular receptor 1 (Rattus norvegicus, UniProt P33535+P33533+P34975+Q9R0C9)

CN(C(=O)Cc1ccc(Cl)c(Cl)c1)[C@@H]1CCCC[C@H]1N1CCCC1 showed an IC50 of 12 µM.
